# Results from paper PMC7571155, “Design, Synthesis and Biological Investigation of Flavone Derivatives as Potential Multi-Receptor Atypical Antipsychotics” (Molecules, 2020).
# Sequences of proteins named here, by UniProt entry; tags and fusion partners are left off.
# UniProt P08908, whole entry: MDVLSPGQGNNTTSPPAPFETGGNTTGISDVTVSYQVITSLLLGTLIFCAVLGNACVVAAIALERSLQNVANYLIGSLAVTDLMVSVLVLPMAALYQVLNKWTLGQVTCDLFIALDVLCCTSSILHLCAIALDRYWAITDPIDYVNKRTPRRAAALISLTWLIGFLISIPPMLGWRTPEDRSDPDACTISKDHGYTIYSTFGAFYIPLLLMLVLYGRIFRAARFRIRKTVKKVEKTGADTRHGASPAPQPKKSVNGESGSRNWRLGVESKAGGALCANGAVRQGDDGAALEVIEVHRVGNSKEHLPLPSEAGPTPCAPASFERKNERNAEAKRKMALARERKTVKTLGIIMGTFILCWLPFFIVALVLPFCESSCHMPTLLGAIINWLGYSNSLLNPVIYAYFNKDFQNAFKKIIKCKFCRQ
# UniProt P28223, whole entry: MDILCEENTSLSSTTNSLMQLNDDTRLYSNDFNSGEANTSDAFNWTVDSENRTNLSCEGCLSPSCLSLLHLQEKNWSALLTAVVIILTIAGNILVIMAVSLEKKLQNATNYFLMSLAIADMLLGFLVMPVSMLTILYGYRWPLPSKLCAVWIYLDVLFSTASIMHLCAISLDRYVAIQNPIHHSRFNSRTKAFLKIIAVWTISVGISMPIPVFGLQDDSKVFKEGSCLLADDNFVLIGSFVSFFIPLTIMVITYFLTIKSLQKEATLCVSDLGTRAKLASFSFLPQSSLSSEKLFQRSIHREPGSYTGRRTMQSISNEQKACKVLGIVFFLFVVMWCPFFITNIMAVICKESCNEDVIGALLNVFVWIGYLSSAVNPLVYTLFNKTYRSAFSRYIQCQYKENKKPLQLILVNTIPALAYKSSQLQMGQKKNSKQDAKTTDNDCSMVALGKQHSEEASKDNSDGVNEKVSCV
# How the values were obtained:
# 5-HT1A receptor = target: T1, 5-HT1A receptor (Homo sapiens, UniProt P08908); assay: Intrinsic activity, FLIPR calcium assay, HEK293/5-HT1A; type: cell-based; settings: agonist mode, n = 3
# T1 construct: expressed in transfected cells; host or cells: HEK293
# 5-HT2A receptor = 5-HT2A receptor (Homo sapiens, UniProt P28223); assay: Intrinsic activity, FLIPR calcium assay, HEK293/5-HT2A; settings: agonist mode, n = 3
structure (smiles),measurement,setting,value
"NCCc1c[nH]c2ccc(O)cc12 [Compound 5-HT, reference compound]","Activation (10 μM, %)",5-HT1A receptor,99.7 ± 3.8%
same,"Activation (10 μM, %)",5-HT2A receptor,100.2 ± 2.6%
